Measurements taken from article PMC3977535, “Design and Synthesis of New Dual Binding Site Cholinesterase Inhibitors: in vitro Inhibition Studies with in silico Docking” (Letters in Drug Design & Discovery, 2014).

Amino acid sequences for entries named in this document (tags omitted). Residues count along the entry.
UniProt P22303, 32-614: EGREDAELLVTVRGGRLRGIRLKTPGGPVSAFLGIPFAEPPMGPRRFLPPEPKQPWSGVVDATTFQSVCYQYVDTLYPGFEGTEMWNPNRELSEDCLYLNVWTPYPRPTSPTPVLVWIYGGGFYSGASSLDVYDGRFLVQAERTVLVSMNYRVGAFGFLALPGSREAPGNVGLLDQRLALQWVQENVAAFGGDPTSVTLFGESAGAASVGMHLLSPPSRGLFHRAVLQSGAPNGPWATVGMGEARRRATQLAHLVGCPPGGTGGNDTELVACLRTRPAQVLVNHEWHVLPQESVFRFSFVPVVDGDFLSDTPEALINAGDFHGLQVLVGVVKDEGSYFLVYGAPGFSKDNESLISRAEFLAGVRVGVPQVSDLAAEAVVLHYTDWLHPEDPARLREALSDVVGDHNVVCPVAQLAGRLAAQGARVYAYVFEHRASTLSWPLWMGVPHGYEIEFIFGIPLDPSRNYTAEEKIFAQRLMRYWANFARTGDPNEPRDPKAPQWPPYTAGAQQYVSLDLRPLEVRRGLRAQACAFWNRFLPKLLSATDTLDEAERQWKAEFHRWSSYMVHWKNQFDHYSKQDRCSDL
UniProt P06276, 29-602: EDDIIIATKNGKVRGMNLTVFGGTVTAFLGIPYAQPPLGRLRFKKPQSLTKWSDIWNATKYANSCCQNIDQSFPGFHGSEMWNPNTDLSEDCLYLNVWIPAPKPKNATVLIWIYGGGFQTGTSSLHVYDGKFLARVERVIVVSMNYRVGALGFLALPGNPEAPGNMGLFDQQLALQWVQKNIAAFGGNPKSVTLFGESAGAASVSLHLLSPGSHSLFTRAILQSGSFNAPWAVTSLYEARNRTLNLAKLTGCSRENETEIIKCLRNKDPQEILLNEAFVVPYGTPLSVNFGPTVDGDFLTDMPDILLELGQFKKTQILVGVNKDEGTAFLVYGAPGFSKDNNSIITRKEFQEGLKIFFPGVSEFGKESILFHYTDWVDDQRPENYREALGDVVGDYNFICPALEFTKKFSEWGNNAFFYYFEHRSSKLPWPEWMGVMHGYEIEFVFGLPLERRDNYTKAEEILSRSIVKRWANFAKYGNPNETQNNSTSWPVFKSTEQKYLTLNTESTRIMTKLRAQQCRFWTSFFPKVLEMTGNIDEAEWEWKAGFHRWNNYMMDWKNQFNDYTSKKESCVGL

Assays:
AChE = target: T1, AChE (Homo sapiens, UniProt P22303); format: biochemical; settings: 0.5 mM test compound; mean with SEM
T1 construct: purchased Sigma Inc
Description: (§1) The AChE and BChE inhibition activity was performed according to the method of Ellman with slight modifications. Total volume of the reaction mixture was 100 µL contained 60 µL Na2HPO4 buffer with concentration of 50 mM and pH 7.7. A 10 µL test compound (0.5 mM per well) was added, followed by the addition of 10 µL enzyme (0.005 unit AChE, 0.5 unit BChE per well, Sigma Inc). […] The reaction was initiated by the addition of 10 µL of 0.5 mM per well substrate (acetylthiocholine iodide or butyrylthiocholine bromide), followed by the addition of 10 µL DTNB (0.5 mM per well). […] Synergy HT (BioTek, USA) 96-well plate reader was used in all experiments. All experiments were carried out with their respective controls in triplicate. […] The percent inhibition was calculated by the help of following equation.
(§2) Inhibition%=Control−Test/Control×100

BChE = target: T2, BChE (Homo sapiens, UniProt P06276); experiment: BChE inhibition assay (Ellman method with slight modifications); format: biochemical; settings: 0.5 mM test compound; mean with SEM
T2 construct: purchased Sigma Inc
Description: as §1, §2

With `CNC(=O)Oc1ccc2c(c1)[C@]1(C)CCN(C)[C@@H]1N2C` [Eserine, reference compound] the “AChE Inhibition, Inhibition (%) at 0.5 mM” value (AChE) was 91.29±1.17% and the “BChE Inhibition, Inhibition (%) at 0.5 mM” value (BChE) was 82.82±1.09%.
